pIC50: −log10 of the molar value.
How the values were obtained:
[1] = biological target: Fibroblast growth factor receptor (Homo sapiens, UniProt P22607+P11362+P22455+P21802); assay: Inhibitory concentration of compound against human fibroblast growth factor receptor; type: protein assay
[2] = biological target: Platelet-derived growth factor receptor (Mus musculus, UniProt P05622+P26618); assay: Inhibitory concentration of compound against mouse Platelet-derived growth factor receptor

Protein sequences, listed by entry. Tags and fused reporters are not part of them. Lines headed by an entry give the natural chain unless they say otherwise; changes in a name come on top.
UniProt P22607: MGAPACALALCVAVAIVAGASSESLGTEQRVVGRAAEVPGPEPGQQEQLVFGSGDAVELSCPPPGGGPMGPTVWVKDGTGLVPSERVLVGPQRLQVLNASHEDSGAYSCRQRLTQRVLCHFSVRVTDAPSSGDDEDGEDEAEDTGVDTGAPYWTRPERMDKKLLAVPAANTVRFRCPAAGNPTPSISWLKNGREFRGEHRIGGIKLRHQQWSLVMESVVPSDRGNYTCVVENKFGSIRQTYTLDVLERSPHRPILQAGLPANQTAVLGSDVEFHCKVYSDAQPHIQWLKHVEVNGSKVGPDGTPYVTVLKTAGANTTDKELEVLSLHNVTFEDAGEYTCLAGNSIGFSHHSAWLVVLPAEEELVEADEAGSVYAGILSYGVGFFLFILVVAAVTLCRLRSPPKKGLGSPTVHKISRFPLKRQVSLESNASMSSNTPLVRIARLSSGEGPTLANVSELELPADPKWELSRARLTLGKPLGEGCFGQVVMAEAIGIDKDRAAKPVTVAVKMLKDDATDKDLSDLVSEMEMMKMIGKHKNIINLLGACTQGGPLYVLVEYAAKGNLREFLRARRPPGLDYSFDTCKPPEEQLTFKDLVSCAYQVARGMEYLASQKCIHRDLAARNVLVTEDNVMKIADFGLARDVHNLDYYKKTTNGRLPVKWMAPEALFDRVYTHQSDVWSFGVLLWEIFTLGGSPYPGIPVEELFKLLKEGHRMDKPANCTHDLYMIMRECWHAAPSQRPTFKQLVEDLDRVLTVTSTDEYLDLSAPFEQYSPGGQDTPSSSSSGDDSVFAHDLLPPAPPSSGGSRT
UniProt P11362: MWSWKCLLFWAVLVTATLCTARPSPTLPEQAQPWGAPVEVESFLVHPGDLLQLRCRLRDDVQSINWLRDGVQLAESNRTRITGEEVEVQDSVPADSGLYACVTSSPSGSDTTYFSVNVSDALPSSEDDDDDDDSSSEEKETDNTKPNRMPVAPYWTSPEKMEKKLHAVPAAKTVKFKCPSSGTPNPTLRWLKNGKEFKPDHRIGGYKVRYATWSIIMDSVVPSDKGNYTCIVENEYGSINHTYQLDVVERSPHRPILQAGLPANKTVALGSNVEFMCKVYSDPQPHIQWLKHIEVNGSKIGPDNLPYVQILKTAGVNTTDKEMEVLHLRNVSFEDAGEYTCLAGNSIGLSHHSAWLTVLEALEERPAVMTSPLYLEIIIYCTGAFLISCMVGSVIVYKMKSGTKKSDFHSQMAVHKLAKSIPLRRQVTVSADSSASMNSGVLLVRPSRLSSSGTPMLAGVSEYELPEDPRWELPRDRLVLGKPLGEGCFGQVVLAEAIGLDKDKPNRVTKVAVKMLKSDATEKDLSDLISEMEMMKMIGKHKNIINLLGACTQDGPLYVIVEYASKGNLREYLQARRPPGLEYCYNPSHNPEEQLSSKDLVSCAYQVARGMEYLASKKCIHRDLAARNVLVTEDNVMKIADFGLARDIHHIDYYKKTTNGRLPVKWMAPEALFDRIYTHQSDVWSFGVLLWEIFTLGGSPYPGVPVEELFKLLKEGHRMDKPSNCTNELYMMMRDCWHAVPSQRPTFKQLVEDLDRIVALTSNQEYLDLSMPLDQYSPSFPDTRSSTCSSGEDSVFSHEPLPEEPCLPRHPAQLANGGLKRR
UniProt P22455: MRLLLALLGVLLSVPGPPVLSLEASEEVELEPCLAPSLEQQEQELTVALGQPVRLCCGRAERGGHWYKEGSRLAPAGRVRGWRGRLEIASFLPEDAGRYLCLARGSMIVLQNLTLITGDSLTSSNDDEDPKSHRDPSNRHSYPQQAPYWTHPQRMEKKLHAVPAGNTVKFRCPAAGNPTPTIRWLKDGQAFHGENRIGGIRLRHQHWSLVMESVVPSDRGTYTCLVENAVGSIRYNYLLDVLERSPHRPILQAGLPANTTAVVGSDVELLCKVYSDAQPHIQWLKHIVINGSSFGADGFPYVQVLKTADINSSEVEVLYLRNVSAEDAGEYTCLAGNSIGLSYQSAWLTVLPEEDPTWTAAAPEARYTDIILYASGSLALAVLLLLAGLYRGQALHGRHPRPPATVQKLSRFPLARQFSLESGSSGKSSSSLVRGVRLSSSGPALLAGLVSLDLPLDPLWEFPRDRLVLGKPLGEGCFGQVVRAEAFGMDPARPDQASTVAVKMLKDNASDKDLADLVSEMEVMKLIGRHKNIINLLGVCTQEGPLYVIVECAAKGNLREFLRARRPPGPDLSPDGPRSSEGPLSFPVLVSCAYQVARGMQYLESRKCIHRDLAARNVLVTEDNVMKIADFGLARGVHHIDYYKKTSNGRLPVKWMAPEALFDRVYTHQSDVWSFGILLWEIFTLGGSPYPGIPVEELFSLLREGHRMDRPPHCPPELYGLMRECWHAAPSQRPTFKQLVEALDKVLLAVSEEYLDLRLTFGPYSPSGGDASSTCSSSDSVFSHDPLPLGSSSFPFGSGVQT
UniProt P21802: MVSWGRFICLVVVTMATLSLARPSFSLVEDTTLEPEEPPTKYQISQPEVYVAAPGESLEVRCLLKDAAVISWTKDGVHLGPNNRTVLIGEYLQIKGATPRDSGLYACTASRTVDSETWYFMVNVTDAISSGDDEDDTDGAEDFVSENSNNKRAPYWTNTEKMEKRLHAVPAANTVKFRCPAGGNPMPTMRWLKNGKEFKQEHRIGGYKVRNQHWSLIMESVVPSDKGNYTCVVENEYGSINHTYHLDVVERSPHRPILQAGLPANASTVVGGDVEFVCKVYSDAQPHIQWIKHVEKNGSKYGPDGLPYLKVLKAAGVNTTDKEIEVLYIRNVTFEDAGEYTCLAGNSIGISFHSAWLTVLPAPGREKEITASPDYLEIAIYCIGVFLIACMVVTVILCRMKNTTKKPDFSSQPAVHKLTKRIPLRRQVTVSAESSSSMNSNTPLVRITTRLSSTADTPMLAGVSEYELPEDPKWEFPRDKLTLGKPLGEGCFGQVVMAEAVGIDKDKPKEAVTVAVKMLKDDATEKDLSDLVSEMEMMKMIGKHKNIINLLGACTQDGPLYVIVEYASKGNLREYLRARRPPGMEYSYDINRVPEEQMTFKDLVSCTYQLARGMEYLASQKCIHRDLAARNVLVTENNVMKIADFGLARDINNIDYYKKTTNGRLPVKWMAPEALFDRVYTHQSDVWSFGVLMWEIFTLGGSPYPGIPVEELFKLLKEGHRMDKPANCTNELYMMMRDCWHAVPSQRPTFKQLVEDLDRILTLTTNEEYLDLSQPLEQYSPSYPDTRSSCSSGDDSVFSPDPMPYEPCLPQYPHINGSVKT
UniProt P05622: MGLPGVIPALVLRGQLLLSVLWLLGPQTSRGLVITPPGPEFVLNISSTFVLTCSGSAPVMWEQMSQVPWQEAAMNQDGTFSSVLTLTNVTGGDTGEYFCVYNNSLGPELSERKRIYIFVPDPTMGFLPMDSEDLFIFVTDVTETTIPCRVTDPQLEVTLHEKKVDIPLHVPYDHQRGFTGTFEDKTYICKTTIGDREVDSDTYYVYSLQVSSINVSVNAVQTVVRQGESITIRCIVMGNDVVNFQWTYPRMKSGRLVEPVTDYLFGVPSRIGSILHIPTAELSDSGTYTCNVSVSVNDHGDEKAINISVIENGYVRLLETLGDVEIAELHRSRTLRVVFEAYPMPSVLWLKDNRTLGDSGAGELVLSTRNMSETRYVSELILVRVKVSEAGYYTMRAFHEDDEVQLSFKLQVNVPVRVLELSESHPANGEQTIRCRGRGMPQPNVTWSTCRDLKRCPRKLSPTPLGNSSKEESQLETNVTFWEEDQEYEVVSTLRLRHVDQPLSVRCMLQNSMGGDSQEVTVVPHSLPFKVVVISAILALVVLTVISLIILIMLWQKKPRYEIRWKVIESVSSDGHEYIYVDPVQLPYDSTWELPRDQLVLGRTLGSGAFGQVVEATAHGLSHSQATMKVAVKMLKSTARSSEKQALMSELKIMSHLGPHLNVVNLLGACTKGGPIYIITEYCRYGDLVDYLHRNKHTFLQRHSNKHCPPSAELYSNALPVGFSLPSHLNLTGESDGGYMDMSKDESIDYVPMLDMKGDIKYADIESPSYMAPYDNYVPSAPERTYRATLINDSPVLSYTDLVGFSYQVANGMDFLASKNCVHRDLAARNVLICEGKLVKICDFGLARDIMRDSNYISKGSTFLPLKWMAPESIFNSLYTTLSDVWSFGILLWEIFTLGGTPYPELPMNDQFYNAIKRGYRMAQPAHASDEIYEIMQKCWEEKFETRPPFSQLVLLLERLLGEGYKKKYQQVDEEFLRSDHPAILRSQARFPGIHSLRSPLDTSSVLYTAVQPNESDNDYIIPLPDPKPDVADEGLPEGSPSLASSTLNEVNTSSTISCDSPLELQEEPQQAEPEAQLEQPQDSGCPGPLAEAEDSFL
UniProt P26618: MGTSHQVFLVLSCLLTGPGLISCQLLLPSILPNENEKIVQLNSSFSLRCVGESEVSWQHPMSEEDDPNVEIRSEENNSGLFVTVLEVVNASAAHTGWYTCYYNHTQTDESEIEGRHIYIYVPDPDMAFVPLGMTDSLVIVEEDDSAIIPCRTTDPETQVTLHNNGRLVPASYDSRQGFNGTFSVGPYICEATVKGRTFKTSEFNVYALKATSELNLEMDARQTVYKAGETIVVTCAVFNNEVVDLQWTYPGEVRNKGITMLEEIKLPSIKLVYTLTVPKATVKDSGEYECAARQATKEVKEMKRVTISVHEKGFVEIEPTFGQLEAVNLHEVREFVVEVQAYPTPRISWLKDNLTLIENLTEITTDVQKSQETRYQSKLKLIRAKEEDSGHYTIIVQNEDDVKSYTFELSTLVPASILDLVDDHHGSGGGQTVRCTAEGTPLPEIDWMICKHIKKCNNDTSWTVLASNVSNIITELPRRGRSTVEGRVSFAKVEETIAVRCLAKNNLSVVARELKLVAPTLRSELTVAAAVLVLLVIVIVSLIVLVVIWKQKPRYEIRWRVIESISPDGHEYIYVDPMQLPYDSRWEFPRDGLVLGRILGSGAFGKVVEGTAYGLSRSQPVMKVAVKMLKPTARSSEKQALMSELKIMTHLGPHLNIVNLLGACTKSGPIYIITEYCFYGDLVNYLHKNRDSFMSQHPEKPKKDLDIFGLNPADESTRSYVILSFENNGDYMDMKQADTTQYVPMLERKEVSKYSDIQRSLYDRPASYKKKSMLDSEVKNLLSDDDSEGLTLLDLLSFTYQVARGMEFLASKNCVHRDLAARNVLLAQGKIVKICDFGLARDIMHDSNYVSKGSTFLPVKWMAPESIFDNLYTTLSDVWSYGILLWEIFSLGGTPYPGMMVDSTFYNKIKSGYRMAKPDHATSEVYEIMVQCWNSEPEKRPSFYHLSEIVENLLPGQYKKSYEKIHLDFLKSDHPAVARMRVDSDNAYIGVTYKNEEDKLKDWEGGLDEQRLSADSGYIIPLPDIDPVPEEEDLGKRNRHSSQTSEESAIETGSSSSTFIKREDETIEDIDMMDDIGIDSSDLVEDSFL

Row | Structure (SMILES) | IC50 [1] | pIC50 [2]
1 | COc1ccc(NC(=O)Nc2nc3nc(NCCCN4CCN(C)CC4)ncc3cc2-c2c(Cl)cccc2Cl)cc1 | 139 nM | 6.10
2 | CN1CCN(CCCNc2ncc3cc(-c4c(Cl)cccc4Cl)c(NC(=O)NC4CCCCC4)nc3n2)CC1 |  | 6.58
3 | CN1CCN(CCCNc2ncc3cc(-c4c(Cl)cccc4Cl)c(NC(=O)NCc4ccccc4)nc3n2)CC1 |  | 5.70

Reference: ChEMBL document CHEMBL1131506, “Development of a binding model to protein tyrosine kinases for substituted pyrido[2,3-d]pyrimidine inhibitors” (J Med Chem, 1998)
